Data: patent US20050113256A1, “Methods of reducing the nicotine content of tobacco plants and tobacco plants obtained thereby” (priority 2003, published 2005)

Conditions: GOX derived from A. niger, dry powder; U = one micromole of glucose per minute at about 25° C. and pH=7

## glucose oxidase [Active GOX]
  GOX activity: 200 to 250 U/mg
